Experimental data from patent US7868204B2, “Inhibitors of histone deacetylase” (MethylGene Inc., priority 2001, dated 2011).

Amino acid sequences for entries named in this document (tags omitted).
UniProt Q13547, whole entry: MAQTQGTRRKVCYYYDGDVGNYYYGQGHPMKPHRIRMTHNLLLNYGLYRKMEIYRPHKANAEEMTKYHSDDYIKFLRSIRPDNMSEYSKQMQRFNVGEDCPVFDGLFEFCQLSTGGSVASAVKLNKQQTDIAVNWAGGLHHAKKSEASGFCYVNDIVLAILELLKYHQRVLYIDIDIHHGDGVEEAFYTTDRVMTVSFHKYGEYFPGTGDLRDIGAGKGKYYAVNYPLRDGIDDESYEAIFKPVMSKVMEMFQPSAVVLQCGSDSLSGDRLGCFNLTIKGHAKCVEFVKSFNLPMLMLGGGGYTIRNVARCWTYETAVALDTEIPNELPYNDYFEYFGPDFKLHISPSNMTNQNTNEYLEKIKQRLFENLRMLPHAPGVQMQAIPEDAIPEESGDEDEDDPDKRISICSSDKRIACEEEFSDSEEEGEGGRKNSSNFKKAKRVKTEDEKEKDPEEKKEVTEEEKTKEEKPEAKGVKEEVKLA

Assays:
[1] = target: cloned recombinant human HDAC-1 (Homo sapiens, UniProt Q13547); experiment: Human HDAC-1 enzyme inhibition, Assay 1 ([3H]-acetylated histone substrate, scintillation counting); format: biochemical; settings: read-out: Human HDAC-1 IC50; Table 5F
[2] = test system: acetylated histone H-4 in T24 human bladder cancer cells; experiment: Histone H4 acetylation in whole cells by immunoblots; settings: read-out: H4 Ac (T24) EC50, Table 5F, 16 h
[3] = test system: HCT116 cells; experiment: MTT assay; settings: read-out: MTT (HCT116) IC50, Table 5F, 72 hours

Nc1ccccc1NC(=O)c1ccc(CC2COc3ccccc3C2=O)cc1 (stereo not drawn)
IC50 [1]: 400 nM | EC50 [2]: 2000 nM | IC50 [3]: 900 nM
